ChEMBL document CHEMBL5244204, “Drug discovery approaches targeting 5-lipoxygenase-activating protein (FLAP) for inhibition of cellular leukotriene biosynthesis” (Eur J Med Chem, 2018)

Protein sequences, listed by entry. Tags and fused reporters are not part of them. Lines headed by an entry give the natural chain unless they say otherwise; changes in a name come on top.
UniProt P20292: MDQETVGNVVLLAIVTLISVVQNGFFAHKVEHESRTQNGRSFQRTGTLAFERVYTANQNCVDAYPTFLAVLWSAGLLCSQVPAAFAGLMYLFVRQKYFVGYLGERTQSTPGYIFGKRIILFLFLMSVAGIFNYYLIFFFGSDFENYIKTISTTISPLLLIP

Experiments:
[1] = target: T1, Arachidonate 5-lipoxygenase-activating protein (Homo sapiens, UniProt P20292); assay: Inhibition of FLAP in human whole blood assessed as reduction in LTB4 level preincubated for 15 mins followed by calcium ionophore A23187 addition and measured after 30 min; type: tissue-based
[2] = target: T1, Arachidonate 5-lipoxygenase-activating protein; assay: Inhibition of N-terminal His6-tagged human FLAP expressed in Sf9 insect cells assessed as inhibition constant incubated for 2 hr by HTRF assay
[3] = target: T1, Arachidonate 5-lipoxygenase-activating protein; assay: Inhibition of FLAP in human whole blood assessed as reduction of LTB4 formation preincubated with enzyme for 15 mins followed by calcium ionophore A23187 addition and measured after 30 mins; type: tissue-based

Row | Structure (SMILES) | IC50 [1] | Ki [2] | IC50 [3]
1 | C[C@H](CO)NS(=O)(=O)c1ccccc1-c1ccc(-c2cnc(N)cn2)c(F)c1 | 38 nM | – | –
2 | Cc1cnc(COc2ccc3nc([C@H]4CCCC[C@H]4C(=O)O)n(Cc4ccc(N5CCC(C)CC5)cc4F)c3c2)c(F)c1 | – | 1.1 nM | 29 nM
